# Measured values as given in patent US20240360179A1, “STAPLED PEPTIDES AND METHODS THEREOF” (FOG PHARMACEUTICALS, INC., priority 2021, published 2024).
# The chains behind the UniProt entries cited, without tags or fusion partners.
# UniProt P35222, whole entry: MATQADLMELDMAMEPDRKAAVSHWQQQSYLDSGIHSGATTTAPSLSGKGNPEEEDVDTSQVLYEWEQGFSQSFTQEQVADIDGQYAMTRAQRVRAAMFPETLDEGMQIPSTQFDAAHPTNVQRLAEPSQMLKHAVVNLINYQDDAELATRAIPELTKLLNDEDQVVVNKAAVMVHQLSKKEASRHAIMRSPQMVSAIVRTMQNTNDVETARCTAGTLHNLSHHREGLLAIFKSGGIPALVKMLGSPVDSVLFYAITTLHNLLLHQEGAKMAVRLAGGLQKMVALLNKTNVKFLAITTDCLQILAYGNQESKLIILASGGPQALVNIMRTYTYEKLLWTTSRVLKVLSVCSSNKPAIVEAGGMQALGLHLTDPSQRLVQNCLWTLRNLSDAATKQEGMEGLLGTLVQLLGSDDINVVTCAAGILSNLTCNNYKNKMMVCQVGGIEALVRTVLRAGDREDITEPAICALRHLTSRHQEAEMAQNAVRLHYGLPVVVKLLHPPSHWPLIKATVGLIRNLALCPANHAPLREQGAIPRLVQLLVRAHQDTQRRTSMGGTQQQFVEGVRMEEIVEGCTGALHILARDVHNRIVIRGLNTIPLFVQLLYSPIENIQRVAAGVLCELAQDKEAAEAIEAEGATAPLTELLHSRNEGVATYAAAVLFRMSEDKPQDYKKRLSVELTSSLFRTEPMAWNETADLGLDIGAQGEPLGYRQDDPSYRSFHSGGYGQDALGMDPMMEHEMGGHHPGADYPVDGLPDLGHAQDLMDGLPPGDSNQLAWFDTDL
# pIC50: −log10 of the molar value.
# Experiments:
# [1] = molecular target: beta-catenin/TCF4 interaction (Homo sapiens, UniProt P35222); assay type: cell-based; set-up: host or cells: HEK293; conditions: read-out: NanoBRET Abs IC50
# [2] = molecular target: T1, full-length B-Catenin (Uniprot ID P35222) (Homo sapiens, UniProt P35222); assay type: binding; conditions: competition fluorescence polarization; read-out: beta-Catenin FP IC50
# T1 construct: 10 nM full-length B-Catenin (Uniprot ID P35222)
Substance,pIC50 [1],pIC50 [2]
Ac-PL3-Asp-Cba-B5-Asp-3COOHF-Cbg-Ala-Phe-Lys*3-PyrS2-3Thi-BztA-GlnR*3-Ala-NH2 [I-860],5.00 to 5.52,> 7.30
Ac-PL3-Asp-Cba-B5-Asp-3COOHF-Cha-Ala-Phe-Lys*3-PyrS2-3Thi-BztA-GlnR*3-Ala-NH2 [I-734],5.52 to 5.82,> 7.30
Ac-PL3-Asp-Cba-B5-Asp-3COOHF-CyLeu-Ala-Phe-Lys*3-PyrS2-3Thi-BztA-GlnR*3-Ala-NH2 [I-733],> 5.82,> 7.30
Ac-PL3-Asp-Cba-B5-Asp-3COOHF-Phe-Ala-Phe-Lys*3-PyrS2-3Thi-BztA-GlnR*3-Ala-NH2 [I-732],> 5.82,> 7.30
Ac-PL3-Asp-Cba-B5-Asp-3COOHF-nLeu-Ala-Phe-Lys*3-PyrS2-3Thi-BztA-GlnR*3-Ala-NH2 [I-990],5.00 to 5.52,> 7.30
Ac-PL3-Asp-Cha-B5-Asp-3COOHF-Aic-Ala-Phe-Lys*3-PyrS2-3Thi-BztA-GlnR*3-Ala-NH2 [I-846],5.00 to 5.52,> 7.30
Ac-PL3-Asp-Cha-B5-Asp-3COOHF-Cbg-Ala-Phe-Lys*3-PyrS2-3Thi-BztA-GlnR*3-Ala-NH2 [I-859],5.52 to 5.82,> 7.30
Ac-PL3-Asp-Cha-B5-Asp-3COOHF-CyhLeu-Ala-Phe-Lys*3-PyrS2-3Thi-BztA-GlnR*3-Ala-NH2 [I-852],5.52 to 5.82,> 7.30
Ac-PL3-Asp-Cha-B5-Asp-3COOHF-Phe-Ala-Phe-Lys*3-PyrS2-3Thi-BztA-GlnR*3-Ala-NH2 [I-841],5.52 to 5.82,> 7.30
Ac-PL3-Asp-Chg-B5-Asp-3COOHF-Aib-Gly-Phe-Lys*3-PyrS2-3Thi-BztA-GlnR*3-Ala-NH2 [I-999],5.00 to 5.52,> 7.30
Ac-PL3-Asp-Chg-B5-Asp-3COOHF-Aib-aThr-Phe-Lys*3-PyrS2-3Thi-BztA-GlnR*3-Ala-NH2 [I-998],5.00 to 5.52,> 7.30
Ac-PL3-Asp-Chg-B5-Asp-3COOHF-Aic-Ala-Phe-Lys*3-PyrS2-3Thi-BztA-GlnR*3-Ala-NH2 [I-844],5.52 to 5.82,> 7.30
Ac-PL3-Asp-Chg-B5-Asp-3COOHF-Cha-Ala-Phe-Lys*3-PyrS2-3Thi-BztA-GlnR*3-Ala-NH2 [I-737],> 5.82,> 7.30
Ac-PL3-Asp-Chg-B5-Asp-3COOHF-CyLeu-Ala-Phe-Lys*3-PyrS2-3Thi-BztA-GlnR*3-Ala-NH2 [I-736],> 5.82,> 7.30
Ac-PL3-Asp-Chg-B5-Asp-3COOHF-CyhLeu-Ala-Phe-Lys*3-PyrS2-3Thi-BztA-GlnR*3-Ala-NH2 [I-850],5.52 to 5.82,> 7.30
Ac-PL3-Asp-Chg-B5-Asp-3COOHF-Phe-Ala-Phe-Lys*3-PyrS2-3Thi-BztA-GlnR*3-Ala-NH2 [I-735],5.00 to 5.52,> 7.30
Ac-PL3-Asp-Chg-B5-Asp-3COOHF-dAla-Ala-Phe-Lys*3-PyrS2-3Thi-BztA-GlnR*3-Ala-NH2 [I-996],5.52 to 5.82,> 7.30
Ac-PL3-Asp-DipA-B5-Asp-3COOHF-Aib-Ala-Phe-Lys*3-PyrS2-3Thi-BztA-GlnR*3-Ala-NH2 [I-708],5.52 to 5.82,> 7.30
Ac-PL3-Asp-DipA-B5-Asp-3COOHF-Aib-Gly-Phe-Lys*3-PyrS2-3Thi-BztA-GlnR*3-Ala-NH2 [I-1008],5.00 to 5.52,> 7.30
Ac-PL3-Asp-DipA-B5-Asp-3COOHF-Aib-Ser-Phe-Lys*3-PyrS2-3Thi-BztA-GlnR*3-Ala-NH2 [I-1004],5.00 to 5.52,> 7.30
Ac-PL3-Asp-DipA-B5-Asp-3COOHF-Aib-aThr-Phe-Lys*3-PyrS2-3Thi-BztA-GlnR*3-Ala-NH2 [I-1006],< 5.00,> 7.30
Ac-PL3-Asp-DipA-B5-Asp-3COOHF-Aic-Ala-Phe-Lys*3-PyrS2-3Thi-BztA-GlnR*3-Ala-NH2 [I-845],5.00 to 5.52,> 7.30
Ac-PL3-Asp-DipA-B5-Asp-3COOHF-Ala-Ala-Phe-Lys*3-PyrS2-3Thi-34ClF-GlnR*3-Ala-Ala-Ala-[mPEG8]-Lys [I-1705],5.00 to 5.52,> 7.30
Ac-PL3-Asp-DipA-B5-Asp-3COOHF-Ala-Ala-Phe-Lys*3-PyrS2-3Thi-34ClF-GlnR*3-Ala-Ala-Ala-[mPEG37]-Lys [I-1706],< 5.00,> 7.30
Ac-PL3-Asp-DipA-B5-Asp-3COOHF-Ala-Ala-Phe-Lys*3-PyrS2-3Thi-34ClF-GlnR*3-Ala-Ala-[mPEG8]-Lys-NH2 [I-1703],5.00 to 5.52,> 7.30
Ac-PL3-Asp-DipA-B5-Asp-3COOHF-Ala-Ala-Phe-Lys*3-PyrS2-3Thi-34ClF-GlnR*3-Ala-Ala-[mPEG37]-Lys-NH2 [I-1704],< 5.00,> 7.30
Ac-PL3-Asp-DipA-B5-Asp-3COOHF-Ala-Ala-Phe-Lys*3-PyrS2-3Thi-BztA-GlnR*3-Ala-NH2 [I-982],5.52 to 5.82,> 7.30
Ac-PL3-Asp-DipA-B5-Asp-3COOHF-CyLeu-Ala-Phe-Lys*3-PyrS2-2F3MeF-34ClF-GlnR*3-Leu-NH2 [I-1769],< 5.00,6.70 to 7.30

Substance,pIC50 [1],pIC50 [2]
Ac-PL3-Asp-DipA-B5-Asp-3COOHF-CyLeu-Ala-Phe-Lys*3-PyrS2-2F3MeF-34ClF-GlnR*3-Val-NH2 [I-1773],< 5.00,> 7.30
Ac-PL3-Asp-DipA-B5-Asp-3COOHF-CyLeu-Ala-Phe-Lys*3-PyrS2-2F3MeF-BztA-GlnR*3-Leu-NH2 [I-1770],< 5.00,6.70 to 7.30
Ac-PL3-Asp-DipA-B5-Asp-3COOHF-CyLeu-Ala-Phe-Lys*3-PyrS2-2F3MeF-BztA-GlnR*3-NH2 [I-1766],< 5.00,> 7.30
Ac-PL3-Asp-DipA-B5-Asp-3COOHF-CyLeu-Ala-Phe-Lys*3-PyrS2-2F3MeF-BztA-GlnR*3-Phe-NH2 [I-1777],< 5.00,6.70 to 7.30
Ac-PL3-Asp-DipA-B5-Asp-3COOHF-CyLeu-Ala-Phe-Lys*3-PyrS2-2F3MeF-BztA-GlnR*3-Ser-NH2 [I-1772],< 5.00,> 7.30
Ac-PL3-Asp-DipA-B5-Asp-3COOHF-CyLeu-Ala-Phe-Lys*3-PyrS2-2F3MeF-BztA-GlnR*3-Val-NH2 [I-1774],5.00 to 5.52,> 7.30
Ac-PL3-Asp-DipA-B5-Asp-3COOHF-CyLeu-Ala-Phe-Lys*3-PyrS2-3Thi-BztA-GlnR*3-Ala-NH2 [I-740],> 5.82,> 7.30
Ac-PL3-Asp-DipA-B5-Asp-3COOHF-Leu-Ala-Phe-Lys*3-PyrS2-3Thi-BztA-GlnR*3-Ala-NH2 [I-985],> 5.82,> 7.30
Ac-PL3-Asp-DipA-B5-Asp-3COOHF-Phe-Ala-Phe-Lys*3-PyrS2-3Thi-BztA-GlnR*3-Ala-NH2 [I-738],5.00 to 5.52,> 7.30
Ac-PL3-Asp-DipA-B5-Asp-3COOHF-Phe-Ala-Phe-Lys*3-PyrS2-3Thi-BztA-GlnR*3-Ala-NH2 [I-739],5.52 to 5.82,> 7.30
Ac-PL3-Asp-DipA-B5-Asp-3COOHF-Val-Ala-Phe-Lys*3-PyrS2-3Thi-BztA-GlnR*3-Ala-NH2 [I-984],5.52 to 5.82,> 7.30
Ac-PL3-Asp-DipA-B5-Asp-3COOHF-nLeu-Ala-Phe-Lys*3-PyrS2-3Thi-BztA-GlnR*3-Ala-NH2 [I-986],> 5.82,> 7.30
Ac-PL3-Asp-Ile-B5-Asp-3COOHF-Aib-Ala-Phe-Lys*3-PyrS2-3Thi-34ClF-GlnR*3-Ala-NH2 [I-1010],5.52 to 5.82,> 7.30
Ac-PL3-Asp-Ile-B5-Asp-3COOHF-Aib-Ala-Phe-TriAzLys*3-PyrS2-Phe-34ClF-sCH2S*3-NH2 [I-1858],5.00 to 5.52,> 7.30
Ac-PL3-Asp-Ile-B5-Asp-3COOHF-Aib-Ala-Phe-TriAzOrn*3-PyrS2-Phe-34ClF-sCH2S*3-NH2 [I-1860],5.00 to 5.52,> 7.30
Ac-PL3-Asp-Ile-B5-Asp-3COOHF-Aib-Ala-Phe-sAla*3-PyrS2-Phe-34ClF-TriAzLys*3-NH2 [I-1857],5.00 to 5.52,> 7.30
Ac-PL3-Asp-Ile-B5-Asp-3COOHF-Aib-Ala-Phe-sCH2S*3-PyrS2-Phe-34ClF-TriAzLys*3-NH2 [I-1859],5.00 to 5.52,> 7.30
Ac-PL3-Asp-Ile-B5-Asp-3COOHF-Aib-Ala-Phe-sCH2S*3-PyrS2-Phe-34ClF-TriAzOrn*3-NH2 [I-1862],5.00 to 5.52,> 7.30
Ac-PL3-Asp-Ile-B5-Asp-3COOHF-Aic-Ala-Phe-Lys*3-PyrS2-3Thi-BztA-GlnR*3-Ala-NH2 [I-843],5.52 to 5.82,> 7.30
Ac-PL3-Asp-Ile-B5-Asp-3COOHF-Ala-Ala-Phe-Lys*3-PyrS2-3Thi-BztA-GlnR*3-Ala-NH2 [I-969],> 5.82,> 7.30
Ac-PL3-Asp-Ile-B5-Asp-3COOHF-Ala-Ala-Phe-Lys*3-PyrS2-3Thi-BztA-GlnR*3-Ala-NH2 [I-970],5.52 to 5.82,> 7.30
Ac-PL3-Asp-Ile-B5-Asp-3COOHF-GlnBDA*3-Ala-Phe-Ala-PyrS2-Phe-34ClF-GlnR*3-NH2 [I-1797],< 5.00,> 7.30
Ac-PL3-Asp-Ile-B5-Asp-3COOHF-GlnBDA*3-Ala-Phe-Val-PyrS2-Phe-34ClF-GlnR*3-NH2 [I-1798],5.00 to 5.52,> 7.30
Ac-PL3-Asp-Ile-B5-Asp-3COOHF-Phe-Ala-Phe-Lys*3-PyrS2-3Thi-BztA-GlnR*3-Ala-NH2 [I-729],> 5.82,> 7.30
Ac-PL3-Asp-Ile-B5-Asp-3COOHF-Val-Ala-Phe-Lys*3-PyrS2-3Thi-BztA-GlnR*3-Ala-NH2 [I-971],5.52 to 5.82,> 7.30
Ac-PL3-Asp-Ile-B5-Asp-Me2Gln-Aib-Ala-Phe-Lys*3-PyrS2-Phe-34ClF-GlnR*3-Ala-NH2 [I-1786],5.00 to 5.52,> 7.30
Ac-PL3-Asp-Leu-B5-Asp-3COOHF-Ala-Ala-Phe-DGlnR*3-PyrS2-3Thi-BztA-Lys*3-NH2 [I-14],5.00 to 5.52,> 7.30
